Data set [1] concerns the target T1, hERG (Homo sapiens, UniProt Q12809).
Data set [2] concerns the target T1, hERG. Kind of data set: in vitro. As to conditions: hERG K+ current inhibition, Mean.
Data set [3] addresses T1, hERG. Kind of data set: cell-based.
In data set [4] the target is hCav1.2 (Homo sapiens, UniProt Q13936). Description: Automated patch clamp, hCav1.2 current block. As to conditions: for IC50: log IC50, half-maximal inhibitory concentration.
In data set [5] the target is T1, hERG. Kind of data set: Automated patch clamp, hERG current block, Milnes protocol (site s06).
Data set [6] concerns the target T1, hERG. As to conditions: 90 nM, HEK293 cells at 22 °C, manual patch clamp, n = 83 cells; cited from earlier work.
Setting [7] is: hERG K+ current log IC50, s04_p3, CHO, room temperature.

Sequences of proteins named here, by UniProt entry; tags and fusion partners are left off. A change or cut given only in a name is not applied to a line headed by its entry.
UniProt Q12809: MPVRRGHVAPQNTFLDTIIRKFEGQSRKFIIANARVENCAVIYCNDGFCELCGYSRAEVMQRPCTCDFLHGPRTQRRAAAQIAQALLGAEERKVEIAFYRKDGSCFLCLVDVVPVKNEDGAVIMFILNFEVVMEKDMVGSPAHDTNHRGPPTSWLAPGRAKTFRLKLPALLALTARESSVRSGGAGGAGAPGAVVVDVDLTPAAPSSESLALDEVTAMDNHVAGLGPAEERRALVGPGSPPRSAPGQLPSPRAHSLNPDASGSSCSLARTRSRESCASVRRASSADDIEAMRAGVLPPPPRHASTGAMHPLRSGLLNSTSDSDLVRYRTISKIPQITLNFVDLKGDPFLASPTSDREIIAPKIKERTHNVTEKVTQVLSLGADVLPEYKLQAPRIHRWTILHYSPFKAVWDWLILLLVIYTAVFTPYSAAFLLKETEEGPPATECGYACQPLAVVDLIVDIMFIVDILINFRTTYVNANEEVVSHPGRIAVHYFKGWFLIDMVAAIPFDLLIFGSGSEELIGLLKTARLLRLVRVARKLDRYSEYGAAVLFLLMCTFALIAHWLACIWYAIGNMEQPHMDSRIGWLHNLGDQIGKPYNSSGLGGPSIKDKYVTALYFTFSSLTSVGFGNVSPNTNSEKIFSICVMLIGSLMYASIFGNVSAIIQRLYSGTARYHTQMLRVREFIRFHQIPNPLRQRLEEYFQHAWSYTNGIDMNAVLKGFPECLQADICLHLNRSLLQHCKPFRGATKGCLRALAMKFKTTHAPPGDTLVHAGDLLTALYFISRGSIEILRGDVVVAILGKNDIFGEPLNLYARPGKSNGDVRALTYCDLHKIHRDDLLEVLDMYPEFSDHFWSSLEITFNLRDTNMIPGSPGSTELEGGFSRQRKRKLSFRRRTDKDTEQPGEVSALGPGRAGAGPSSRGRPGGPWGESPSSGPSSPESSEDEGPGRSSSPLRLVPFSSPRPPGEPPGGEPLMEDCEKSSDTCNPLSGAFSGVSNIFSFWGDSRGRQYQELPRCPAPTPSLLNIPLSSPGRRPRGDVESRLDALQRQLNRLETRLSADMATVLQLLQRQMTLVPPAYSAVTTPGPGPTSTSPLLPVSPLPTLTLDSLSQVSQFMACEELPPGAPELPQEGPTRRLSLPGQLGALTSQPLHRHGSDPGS
UniProt Q13936, whole entry: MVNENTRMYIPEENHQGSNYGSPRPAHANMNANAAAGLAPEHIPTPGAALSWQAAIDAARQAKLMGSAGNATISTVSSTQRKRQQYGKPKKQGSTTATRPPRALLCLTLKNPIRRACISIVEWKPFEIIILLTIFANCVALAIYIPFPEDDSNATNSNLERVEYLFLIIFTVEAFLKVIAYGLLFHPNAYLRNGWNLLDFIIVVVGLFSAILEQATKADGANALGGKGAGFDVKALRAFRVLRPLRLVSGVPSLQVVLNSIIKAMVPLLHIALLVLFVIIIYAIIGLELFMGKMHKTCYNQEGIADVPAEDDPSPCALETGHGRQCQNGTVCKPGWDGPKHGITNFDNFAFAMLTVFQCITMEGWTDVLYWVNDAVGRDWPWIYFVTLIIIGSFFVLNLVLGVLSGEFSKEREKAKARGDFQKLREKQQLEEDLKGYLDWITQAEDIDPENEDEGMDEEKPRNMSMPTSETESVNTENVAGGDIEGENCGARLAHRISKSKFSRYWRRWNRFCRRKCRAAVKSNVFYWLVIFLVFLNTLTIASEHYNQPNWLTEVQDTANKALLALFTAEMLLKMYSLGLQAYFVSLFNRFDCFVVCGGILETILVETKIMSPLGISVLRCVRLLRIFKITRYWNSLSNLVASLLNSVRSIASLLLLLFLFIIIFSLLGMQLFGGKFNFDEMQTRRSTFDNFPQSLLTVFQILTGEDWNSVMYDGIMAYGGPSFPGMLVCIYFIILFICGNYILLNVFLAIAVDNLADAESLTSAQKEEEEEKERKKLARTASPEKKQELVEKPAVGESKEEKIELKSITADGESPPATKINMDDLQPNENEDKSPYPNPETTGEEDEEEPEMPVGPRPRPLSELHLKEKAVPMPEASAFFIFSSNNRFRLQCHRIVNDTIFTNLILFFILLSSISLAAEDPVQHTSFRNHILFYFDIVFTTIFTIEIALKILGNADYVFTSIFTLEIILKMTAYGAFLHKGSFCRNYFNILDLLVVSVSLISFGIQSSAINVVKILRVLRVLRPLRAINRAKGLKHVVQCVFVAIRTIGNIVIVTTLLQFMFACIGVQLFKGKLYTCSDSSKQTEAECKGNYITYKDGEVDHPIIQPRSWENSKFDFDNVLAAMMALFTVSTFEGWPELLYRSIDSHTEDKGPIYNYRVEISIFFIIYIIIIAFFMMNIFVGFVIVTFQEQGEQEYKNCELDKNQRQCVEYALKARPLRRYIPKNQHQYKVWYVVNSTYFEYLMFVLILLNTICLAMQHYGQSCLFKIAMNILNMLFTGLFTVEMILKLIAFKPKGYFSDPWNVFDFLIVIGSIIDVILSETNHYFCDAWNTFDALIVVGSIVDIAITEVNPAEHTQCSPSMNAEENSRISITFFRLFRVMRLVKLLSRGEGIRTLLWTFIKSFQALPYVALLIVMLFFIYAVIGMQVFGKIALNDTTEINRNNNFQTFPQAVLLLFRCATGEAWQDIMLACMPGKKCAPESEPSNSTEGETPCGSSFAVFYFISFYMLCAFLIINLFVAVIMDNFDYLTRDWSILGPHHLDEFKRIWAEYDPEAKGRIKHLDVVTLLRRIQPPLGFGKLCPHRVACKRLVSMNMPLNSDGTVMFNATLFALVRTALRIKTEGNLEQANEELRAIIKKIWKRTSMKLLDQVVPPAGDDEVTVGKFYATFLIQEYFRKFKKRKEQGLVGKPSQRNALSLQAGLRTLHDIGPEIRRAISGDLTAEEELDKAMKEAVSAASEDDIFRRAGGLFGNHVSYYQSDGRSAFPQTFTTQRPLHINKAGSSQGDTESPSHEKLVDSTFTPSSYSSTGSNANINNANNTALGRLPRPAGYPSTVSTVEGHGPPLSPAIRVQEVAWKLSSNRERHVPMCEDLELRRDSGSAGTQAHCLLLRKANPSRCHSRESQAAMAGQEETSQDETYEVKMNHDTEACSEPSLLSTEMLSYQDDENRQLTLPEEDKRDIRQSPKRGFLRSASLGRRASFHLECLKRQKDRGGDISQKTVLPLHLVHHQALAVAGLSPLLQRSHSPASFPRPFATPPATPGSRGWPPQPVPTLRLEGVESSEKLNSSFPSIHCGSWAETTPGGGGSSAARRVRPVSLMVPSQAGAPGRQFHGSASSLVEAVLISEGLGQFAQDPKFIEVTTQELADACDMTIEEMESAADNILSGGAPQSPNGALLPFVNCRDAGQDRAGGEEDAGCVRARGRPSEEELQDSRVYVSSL

Where two headings read alike, the source gives them in different places.

As to `CC(C)COCC(CN(Cc1ccccc1)c1ccccc1)N1CCCC1` (centres unmarked) [bep, bepridil], the “nH (Hill slope), hERG K+ current inhibition” value in data set [1] ([…]) was 1.66; in data set [1] (site_platform s10_p3), 1.36; in data set [1] (site_platform s11_p1), 1.00; in data set [1] (site_platform s12_p2), 1.27; in data set [1] (site_platform s13_p2), 1.05; in data set [1] (site_platform s14_p1), 0.58. Moreover, the “hERG K+ current nH, Hill slope” value is listed as 1.25 in data set [1] (s01_p1, CHO, 23 °C); 1.41 in data set [1] (s02_p2, HEK293, 22–26 °C); 1.50 in data set [1] (s03_p2, HEK293, room temperature); 0.99 in data set [1] (s04_p3, CHO, room temperature); 1.21 in data set [1] (s05_p4, HEK293, 22–24 °C); 1.26 in data set [1] (s15_p1, HEK293, 22–23 °C). Besides, the “hERG K+ current nH, Hill slope” value in data set [1] (s16_p3, HEK293, room temperature) is 1.29; in data set [1] (s18_p1, CHO, 35 °C), 1.32; in data set [1] (s19_p3, CHO, room temperature), 1.10; in data set [5] (s06_p4, HEK293, 22–24 °C, Milnes protocol), 1.48. Besides, the “hERG K+ current log IC50” value in data set [1] (s02_p2, HEK293, 22–26 °C) is -6.55 log mol/L. Besides, the inhibition at 1e-08 mol/L in data set [2] (site_platform s12_p2, 1.00E-08 mol/L) worked out at 2.3%; in data set [2] (site_platform s13_p2, 1.00E-08 mol/L), 4.3%. For the same compound, the inhibition at 3e-07 mol/L came to 85.5% in data set [2] (recombinant cells expressing hERG, […], 3.00E-07 mol/L); 66.8% in data set [2] (recombinant cells expressing hERG, site_platform s12_p2, 3.00E-07 mol/L); 61.5% in data set [2] (recombinant cells expressing hERG, site_platform s13_p2, 3.00E-07 mol/L). Further, the inhibition at 4 min, 3e-07 mol/L in data set [2] (recombinant cells expressing hERG, site_platform s10_p3, 3.00E-07 mol/L) came out at 59.6%. The inhibition at 7 min, 3e-07 mol/L in data set [2] (recombinant cells expressing hERG, site_platform s11_p1, 3.00E-07 mol/L) was determined as 90.8%; in data set [2] (recombinant cells expressing hERG, site_platform s14_p1, 3.00E-07 mol/L), 79.8%. Moreover, the half-inhibitory concentration (IC50) is 107 nM in data set [3] (hERG K+ current log IC50, s01_p1, CHO, 23 °C); 61.7 nM in data set [3] (hERG K+ current log IC50, s03_p2, HEK293, room temperature); 204 nM in data set [3] (setting [7]); 123 nM in data set [3] (hERG K+ current log IC50, s05_p4, HEK293, 22–24 °C); 63.1 nM in data set [3] (hERG K+ current log IC50, s15_p1, HEK293, 22–23 °C); 229 nM in data set [3] (hERG K+ current log IC50, s16_p3, HEK293, room temperature). Besides, the half-inhibitory concentration (IC50) is 49 nM in data set [3] (hERG K+ current log IC50, s18_p1, CHO, 35 °C); 347 nM in data set [3] (hERG K+ current log IC50, s19_p3, CHO, room temperature); 240 nM in data set [3] (log IC50, hERG K+ current inhibition, site_platform s10_p3); 47.9 nM in data set [3] (log IC50, hERG K+ current inhibition, site_platform s11_p1); 182 nM in data set [3] (log IC50, hERG K+ current inhibition, site_platform s12_p2); 209 nM in data set [3] (log IC50, hERG K+ current inhibition, site_platform s13_p2). Further, the IC50 in data set [3] (log IC50, hERG K+ current inhibition, site_platform s14_p1) was 46.8 nM; in data set [4] (site s02_p2, corrected for rundown) it was 832 nM; in data set [4] (site s16_p3) it was 302 nM; in data set [5], 275 nM. The “log IC50, half-maximal inhibitory concentration” value in data set [4] (site s01_p1), in data set [4] (site s04_p3), in data set [4] (site s06_p4), in data set [4] (site s11_p1) and in data set [4] (site s14_p1) was “no inh” in each case. The “hERG K+ current inhibition, Mean, at maximal concentration” value in data set [5] (s06_p4, HEK293, 22–24 °C, Milnes protocol, max conc [mol/L]: bep 3.00E-07, cpz 3.00E-06, cis 3.00E-07, dil 1.00E-04, dof 1.00E-07, mex 1.00E-04, ond 1.00E-05, qui 1.00E-05, ran 1.00E-04, sot 3.00E-04, ter 3.00E-07, ver 1.00E-06) is on record as 56.3%. Besides, the “hERG K+ current inhibition, Mean, at minimal concentration” value in data set [5] (s06_p4, HEK293, 22–24 °C, Milnes protocol, min conc [mol/L]: bep 1.00E-08, cpz 1.00E-07, cis 1.00E-09, dil 3.00E-06, dof 1.00E-09, mex 1.00E-06, ond 3.00E-07, qui 1.00E-07, ran 3.00E-06, sot 1.00E-05, ter 1.00E-08, ver 3.00E-08) turned out to be 3.6%.
In the case of `COc1cc(N)c(Cl)cc1C(=O)NC1CCN(CCCOc2ccc(F)cc2)CC1OC` (stereo not drawn) [cis, cisapride], in data set [6], the “hERG current inhibition (mean ± SD)” value is reported as 83.4 ± 7.7%.
For `Cc1nccn1CC1CCc2c(c3ccccc3n2C)C1=O` (centres unmarked) [ond, ondansetron], in data set [3] (setting [7]), the IC50 is 1200 nM.

Values taken from publication PMC7101356, “Cross-site and cross-platform variability of automated patch clamp assessments of drug effects on human cardiac currents in recombinant cells” (Scientific Reports, 2020).
